These results are taken from US12202849B2, “Crystalline forms of tenofovir alafenamide” (Gilead Sciences, Inc., priority 2017, dated 2025).

For this data set the following is noted: deionized water, approximately 22° C., room temperature.

In turn, `CC(C)OC(=O)C(C)NP(=O)(COC(C)Cn1cnc2c(N)ncnc21)Oc1ccccc1.O=S(=O)(O)c1ccc2ccccc2c1` (stereo not shown) [TAF Napsylate, Tenofovir Alafenamide Napsylate] had a Solubility of 7000 µg/mL.

In general, Solubility refers to the dissolved amount per volume that the medium holds. Read a high Solubility as a readily soluble substance.
